Measurements published in PubChem BioAssay AID800 (PCMD, 2007).
Only a part is listed here, and it is no random draw. Some results for these compounds are left out of this collection, so the calls shown say nothing about other tests. Active and inactive are the calls of the source. No stated cut-off is given here; in the data, active means inhibition above about 40%; inactive means the rest.

Chains of the proteins cited; added tags and fusions are not shown. Residues count along the entry.
UniProt P00748, 20-372 limits assumed: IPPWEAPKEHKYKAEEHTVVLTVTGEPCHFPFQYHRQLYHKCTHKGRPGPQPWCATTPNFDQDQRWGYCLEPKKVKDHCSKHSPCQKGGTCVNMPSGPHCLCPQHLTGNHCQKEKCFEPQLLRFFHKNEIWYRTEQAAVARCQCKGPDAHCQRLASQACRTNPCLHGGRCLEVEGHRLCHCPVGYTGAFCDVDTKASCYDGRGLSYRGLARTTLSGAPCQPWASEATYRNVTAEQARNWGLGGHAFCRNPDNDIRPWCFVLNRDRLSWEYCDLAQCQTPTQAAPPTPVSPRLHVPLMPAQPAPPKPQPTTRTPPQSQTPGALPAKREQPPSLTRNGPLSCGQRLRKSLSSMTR
UniProt P00748, 373-615 limits assumed: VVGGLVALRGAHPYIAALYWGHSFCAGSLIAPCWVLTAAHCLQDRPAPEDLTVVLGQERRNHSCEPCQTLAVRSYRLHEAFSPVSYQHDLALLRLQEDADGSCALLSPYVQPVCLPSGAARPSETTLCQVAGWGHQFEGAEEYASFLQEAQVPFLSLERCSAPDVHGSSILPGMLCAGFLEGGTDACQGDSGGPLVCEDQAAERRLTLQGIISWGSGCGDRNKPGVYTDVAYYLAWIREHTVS

The molecules below were run against Coagulation factor XII (Homo sapiens) (UniProt P00748) (assay: coagulation factor XIIa activity inhibition – biochemical, 1536-well, primary screen (AID 800;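 further: 0% = enzyme with no compound and 100% = blank without enzyme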)). Conditions: purified FXIIa, Boc-QGR-AMC fluorogenic substrate, 2 h; at 5 µM; hits give high values.
`CCN1CCCC(OC(=O)C2(O)c3ccccc3C=Cc3ccccc32)C1` (stereo unspecified) was tested, and the inhibition was inactive: 25.6%.
`C=CCN1CCN(CCOC(=O)C(O)(c2ccccc2)c2ccccc2)CC1` was tested, and the inhibition was inactive: 9.5%.
`CN(C)C1CCCC1OC(=O)C(O)(c1ccccc1)c1ccccc1` (stereo unspecified) was tested, and the inhibition was inactive: 8.11%.
`Cc1ccccc1C(=O)NCC1(N2CCCCC2)CCCCC1` was tested, and the inhibition was inactive: 6.72%.
In the case of `CCN(CC)CC(C)C(C)OC(=O)C(O)(c1ccccc1)c1ccccc1` (stereo unspecified), the inhibition is reported as inactive: 1.75%.
For `CC(C)N1C(=O)CC2(CCN(CCOC(=O)C(O)(c3ccccc3)c3ccccc3)CC2)C1=O`, the inhibition was inactive: 15.1%.
`O=C(NCC1(N2CCCCC2)CCCCC1)c1cc([N+](=O)[O-])ccc1Cl` was tested, and the inhibition was inactive: 4.68%.
`CN(C)c1cccc(C(=O)NCC2(N(C)C)CCCCC2)c1` was tested, and the inhibition was inactive: 8.36%.
In the case of `COc1ccc(Br)c(C(=O)NCC2(N3CCCCC3)CCCCC2)c1`, the inhibition is reported as inactive: 3.36%.
`O=C(OC1CN2CCC1CC2)C(CO)(c1ccccc1)c1ccccc1` (stereo unspecified) was tested, and the inhibition was inactive: 2.55%.
With `COc1cccc(C(=O)NCC2(N3CCCCC3)CCCCC2)c1` the inhibition was inactive: 2.19%.
